Tested on: Caco-2 cell monolayer
Conditions: VIP ≥ 1, p < 0.05, fold change >2.0 or < 0.5

SMILES	Differential metabolite TSA vs. TSB	Differential metabolite TSA vs. DS (significantly accumulated in TSA)
COc1ccc(-c2cc(=O)c3c(O)c(OC)c(OC)cc3o2)cc1O [Eupatorin]	upregulated	–
COc1ccc(/C=C/C(=O)O)cc1O [Isoferulic acid]	–	upregulated

Reference: publication PMC11833358 (Food Chemistry: X, 2025)
